Measurements as given in patent publication US5116971A, “Substituted-1,4-diazepines” (Boehringer Ingelheim KG, priority 1986, dated 1992).

Test system: human platelets (aggregation induced by PAF)
Assay: inhibition of PAF-induced blood platelet aggregation in vitro
Assay type: cell-based
Details: human PRP, PAF 5×10^-8 M, read-out: IC50 (concentration for 50% inhibition of aggregation)
Method: To determine the PAF-antagonistic action of substances, use was made of the aggregation of human platelets induced in vitro by PAF. To obtain platelet-rich plasma (PRP), blood is taken from an uncompressed vein using a plastic syringe containing 3.8% strength sodium citrate solution. The ratio between sodium citrate solution and blood is 1:9. After careful mixing, the citrated blood is centrifuged at 150×g (1200 rpm) for 20 minutes. The platelet aggregation is measured by the method worked out by Born and Cross (G. V. R. Born and M. J. Cross, J. Physiol. 168, 178 (1963)), with PAF being added to the continuously stirred PRP to initiate the aggregation. The test substance is added in a volume of 10 ul in each case 2-3 minutes before initiation of the aggregation. The solvents used are either distilled water, ethanol and/or dimethyl sulphoxide. Blanks contain corresponding volumes of these solvents. After the initial absorption has been recorded (2-3 minutes), aggregation is induced with PAF (5×10^-8 M). To assess the effects of substances, use is made of the maximum of the first aggregation wave. The maximum absorption rate (=maximum aggregation×100%) induced by PAF is, in each case, simultaneously checked in a parallel mixture (=blank in one channel of the two-channel aggregometer) for each test mixture (second channel) and used as the 100% value. […]

## Cc1nnc2n1-c1ccc(Cl)cc1C(c1ccccc1)=NC2 [Alprazolam, alprazolam, reference compound]
Table A
  IC50: 14 µM
  IC50: 14 µM

Where two headings read alike, the source gives them in different places.
